Measured values: PubChem BioAssay AID651994 (Sanford-Burnham Center for Chemical Genomics, 2013)
The list shows a part of the results, in another mix than the full data. The source made the active and inactive calls.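 The calls were made as follows: active = mean cytotoxicity at 5 µM above about 25% (limit read from the data); inactive = the rest.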

Test: cell viability loss, Sufu-null reporter line – ATP luminescence, single concentration, cytotoxicity control for Gli-SUFU antagonist project, confirmation (AID 651994);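 also: cells exposed to compound overnight for roughly 16 to 18 hours; plate controls were DMSO wells with cells for no effect and medium without cells for full effect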
Details: Sufu-KO-LIGHT cells cytotoxicity, at 5 µM, hits give high values

Row | SMILES | cytotoxicity
1 | CC1=C2N=C(C=C3N=C(C(C)=C4[N-][C@@](C)([C@@H]5N=C1[C@](C)(CCC(=O)NC[C@@H](C)OP(=O)([O-])O[C@H]1[C@@H](O)[C@@H](n6cnc7cc(C)c(C)cc76)O[C@@H]1CO)[C@H]5CC(N)=O)[C@@](C)(CC(N)=O)[C@@H]4CCC(N)=O)[C@@](C)(CC(N)=O)[C@@H]3CCC(N)=O)C(C)(C)[C@@H]2CCC(N)=O.[C-]#N.[Co+3] | inactive: 11.5%
